# Source: ChEMBL document CHEMBL1201862, “PubChem BioAssay data set” (2004)
# The list shows a part of the results. For most assays here, no stated cut-off is given here; in the data, active = GI50 up to about 1.1 µM and inactive = higher. Only a part of the results of these assays is listed, not drawn at random.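 Assay format: 96-well plates, 48-hour exposure. GI50: concentration for 50% inhibition of growth.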 For part of these data: Results with a measured potency or affinity are listed apart.
# Test system: A498
# Assay: NCI tumour cell line growth inhibition, 48 h
row,Compound,GI50
1,CCN(CCO)CCO.Oc1c(Cl)c(Cl)c(Cl)c(Cl)c1Cl,inactive: 20.2 µM
2,N1=C(c2nnn[nH]2)NNC(c2nnn[nH]2)=N1,inactive: > 100 µM
3,CC1=C[C@H]2O[C@@H]3[C@H](O)[C@@H](O)[C@](C)([C@@]2(O)CC1)[C@]31CO1,active: 0.169 µM

# Test system: A549
# Assay: NCI tumour cell line growth inhibition, 48 h
row,Compound,GI50
1,CCN(CCO)CCO.Oc1c(Cl)c(Cl)c(Cl)c(Cl)c1Cl,inactive: 22.4 µM
2,N1=C(c2nnn[nH]2)NNC(c2nnn[nH]2)=N1,inactive: > 100 µM
3,CC1=C[C@H]2O[C@@H]3[C@H](O)[C@@H](O)[C@](C)([C@@]2(O)CC1)[C@]31CO1,active: 0.264 µM

# Test system: BT-549
# Assay: NCI tumour cell line growth inhibition, 48 h
row,Compound,GI50
1,CCN(CCO)CCO.Oc1c(Cl)c(Cl)c(Cl)c(Cl)c1Cl,inactive: 20.7 µM
2,N1=C(c2nnn[nH]2)NNC(c2nnn[nH]2)=N1,inactive: > 100 µM
3,CC1=CC2OC3CC4OC(=O)/C=C\C=C\C(=O)OCCC(C)C(O)C(=O)OCC2(CC1O)C4(C)C31CO1 (stereo not given),active: < 0.001 µM

# Test system: CAKI-1
# Assay: NCI tumour cell line growth inhibition, 48 h
row,Compound,GI50
1,CCN(CCO)CCO.Oc1c(Cl)c(Cl)c(Cl)c(Cl)c1Cl,inactive: 36.4 µM
2,N1=C(c2nnn[nH]2)NNC(c2nnn[nH]2)=N1,inactive: > 100 µM
3,CC1=C[C@H]2O[C@@H]3[C@H](O)[C@@H](O)[C@](C)([C@@]2(O)CC1)[C@]31CO1,active: 0.541 µM

# Test system: COLO 205
# Assay: NCI tumour cell line growth inhibition, 48 h
row,Compound,GI50
1,CCN(CCO)CCO.Oc1c(Cl)c(Cl)c(Cl)c(Cl)c1Cl,inactive: 21.3 µM
2,N1=C(c2nnn[nH]2)NNC(c2nnn[nH]2)=N1,inactive: > 100 µM
3,CC1=C[C@H]2O[C@@H]3[C@H](O)[C@@H](O)[C@](C)([C@@]2(O)CC1)[C@]31CO1,active: 0.281 µM

# Test system: EKVX
# Assay: NCI tumour cell line growth inhibition, 48 h
row,Compound,GI50
1,CCN(CCO)CCO.Oc1c(Cl)c(Cl)c(Cl)c(Cl)c1Cl,inactive: 12.5 µM
2,N1=C(c2nnn[nH]2)NNC(c2nnn[nH]2)=N1,inactive: > 100 µM
3,CC1=C[C@H]2O[C@@H]3[C@H](O)[C@@H](O)[C@](C)([C@@]2(O)CC1)[C@]31CO1,active: 0.656 µM

# Test system: HCT-116
# Assay: NCI tumour cell line growth inhibition, 48 h
row,Compound,GI50
1,CCN(CCO)CCO.Oc1c(Cl)c(Cl)c(Cl)c(Cl)c1Cl,inactive: 16.3 µM
2,N1=C(c2nnn[nH]2)NNC(c2nnn[nH]2)=N1,inactive: > 100 µM
3,CC1=C[C@H]2O[C@@H]3[C@H](O)[C@@H](O)[C@](C)([C@@]2(O)CC1)[C@]31CO1,active: 0.191 µM

# Test system: HCT-15
# Assay: NCI tumour cell line growth inhibition, 48 h
row,Compound,GI50
1,CCN(CCO)CCO.Oc1c(Cl)c(Cl)c(Cl)c(Cl)c1Cl,inactive: 17 µM
2,N1=C(c2nnn[nH]2)NNC(c2nnn[nH]2)=N1,inactive: > 100 µM
3,CC1=C[C@H]2O[C@@H]3[C@H](O)[C@@H](O)[C@](C)([C@@]2(O)CC1)[C@]31CO1,active: 0.236 µM

# Test system: HOP-62
# Assay: NCI tumour cell line growth inhibition, 48 h
row,Compound,GI50
1,CCN(CCO)CCO.Oc1c(Cl)c(Cl)c(Cl)c(Cl)c1Cl,inactive: 21.3 µM
2,N1=C(c2nnn[nH]2)NNC(c2nnn[nH]2)=N1,inactive: > 100 µM
3,CC1=C[C@H]2O[C@@H]3[C@H](O)[C@@H](O)[C@](C)([C@@]2(O)CC1)[C@]31CO1,active: 0.242 µM

# Test system: HOP-92
# Assay: NCI tumour cell line growth inhibition, 48 h
row,Compound,GI50
1,CCN(CCO)CCO.Oc1c(Cl)c(Cl)c(Cl)c(Cl)c1Cl,inactive: 23.7 µM
2,N1=C(c2nnn[nH]2)NNC(c2nnn[nH]2)=N1,inactive: > 100 µM
3,CC1=C[C@H]2O[C@@H]3[C@H](O)[C@@H](O)[C@](C)([C@@]2(O)CC1)[C@]31CO1,active: 0.172 µM

# Test system: HT-29
# Assay: NCI tumour cell line growth inhibition, 48 h
row,Compound,GI50
1,CCN(CCO)CCO.Oc1c(Cl)c(Cl)c(Cl)c(Cl)c1Cl,inactive: 18.2 µM
2,N1=C(c2nnn[nH]2)NNC(c2nnn[nH]2)=N1,inactive: > 100 µM
3,CC1=C[C@H]2O[C@@H]3[C@H](O)[C@@H](O)[C@](C)([C@@]2(O)CC1)[C@]31CO1,active: 0.345 µM

# Test system: Hs-578T
# Assay: NCI tumour cell line growth inhibition, 48 h
row,Compound,GI50
1,C[C@@H]1CCOC(=O)/C=C/C=C\C(=O)O[C@@H]2C[C@H]3O[C@@H]4[C@@H]5OC5(C)CC[C@]4(COC(=O)[C@H]1O)[C@]2(C)[C@@]31CO1 (stereo not given in full),active: < 0.01 µM
2,CCN(CCO)CCO.Oc1c(Cl)c(Cl)c(Cl)c(Cl)c1Cl,inactive: 33.3 µM
3,N1=C(c2nnn[nH]2)NNC(c2nnn[nH]2)=N1,inactive: > 100 µM
4,CC1=CC2OC3CC4OC(=O)/C=C\C=C\C(=O)OCCC(C)C(O)C(=O)OCC2(CC1O)C4(C)C31CO1 (stereo not given),active: < 0.001 µM

# Test system: IGROV-1
# Assay: NCI tumour cell line growth inhibition, 48 h
row,Compound,GI50
1,CCN(CCO)CCO.Oc1c(Cl)c(Cl)c(Cl)c(Cl)c1Cl,inactive: 14.4 µM
2,N1=C(c2nnn[nH]2)NNC(c2nnn[nH]2)=N1,inactive: > 100 µM
3,Cc1c([N+](=O)[O-])cc([N+](=O)[O-])c(-c2c([N+](=O)[O-])cc([N+](=O)[O-])c(C)c2[N+](=O)[O-])c1[N+](=O)[O-],inactive: 1.47 µM
4,CC1=C[C@H]2O[C@@H]3[C@H](O)[C@@H](O)[C@](C)([C@@]2(O)CC1)[C@]31CO1,active: 0.21 µM

# Test system: K562
# Assay: NCI tumour cell line growth inhibition, 48 h
row,Compound,GI50
1,CCN(CCO)CCO.Oc1c(Cl)c(Cl)c(Cl)c(Cl)c1Cl,inactive: 33.3 µM
2,N1=C(c2nnn[nH]2)NNC(c2nnn[nH]2)=N1,inactive: > 100 µM
3,CC1=CC2OC3CC4OC(=O)/C=C\C=C\C(=O)OCCC(C)C(O)C(=O)OCC2(CC1O)C4(C)C31CO1 (stereo not given),active: < 0.001 µM
4,CC1=C[C@H]2O[C@@H]3[C@H](O)[C@@H](O)[C@](C)([C@@]2(O)CC1)[C@]31CO1,active: 0.178 µM
